From article PMC8948939 (Pharmaceutics, 2022)

By UniProt entry, the sequences of proteins in these tests, tags left out.
UniProt P11712, whole entry: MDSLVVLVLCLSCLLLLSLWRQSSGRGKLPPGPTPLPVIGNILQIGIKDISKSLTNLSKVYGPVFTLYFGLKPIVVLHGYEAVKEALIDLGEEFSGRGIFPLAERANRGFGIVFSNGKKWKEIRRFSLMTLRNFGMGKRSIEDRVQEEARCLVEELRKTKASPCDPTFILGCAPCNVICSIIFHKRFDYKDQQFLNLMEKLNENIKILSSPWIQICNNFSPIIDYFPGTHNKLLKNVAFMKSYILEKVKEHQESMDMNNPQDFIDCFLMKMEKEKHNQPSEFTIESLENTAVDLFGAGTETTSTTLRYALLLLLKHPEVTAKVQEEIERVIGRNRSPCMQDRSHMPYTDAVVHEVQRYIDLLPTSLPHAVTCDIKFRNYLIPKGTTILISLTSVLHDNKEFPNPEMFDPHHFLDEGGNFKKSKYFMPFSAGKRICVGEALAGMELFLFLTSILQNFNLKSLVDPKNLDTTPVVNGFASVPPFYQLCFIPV

Biological target: CYP2C9 (Homo sapiens, UniProt P11712)

## O=C(O)Cc1ccccc1Nc1c(Cl)cccc1Cl [Diclofenac, diclofenac]
  Vmax,rhCYP (95% CI): 13.5 pmol/min∙pmol
